# Legend:
# [1] = tested on: BBM prepared from human intestinal biopsies; assay: Digestion with BBM preparations from human intestinal biopsies
# rat jejunum = assay: In vivo intestinal perfusion in intact adult rats; conditions: 15-20 cm segment of jejunum, residence time 20 min
# [2] = tested on: rat small intestinal brush-border membrane (BBM) enzymes; assay: Rat BBM digestion of peptides from α2-gliadin (12 ng/μl BBM protein); assay type: in vitro ADME
# Experimental: BBM fractions were prepared from rat small intestinal mucosa.
# [3] = tested on: pepsin, trypsin, chymotrypsin, elastase and carboxypeptidase; assay: Gastric and pancreatic protease digestion
sequence,measurement,setting,value
LQLQPFPQPQLPYPQPQLPYPQPQLPYPQPQPF [33-mer],stability toward human BBM,"[1]; 100 μM peptide, 19 hours, 37° C.",remained largely intact
same,Amount of Peptides Digested after 15 hours,[1]; H1P0,<20%
same,Amount of Peptides Digested after 15 hours,[1]; H2P0,<20%
same,Amount of Peptides Digested after 15 hours,[1]; H3P0,<20%
same,Amount of Peptides Digested after 15 hours,[1]; H4P0,<20%
same,Amount of Peptides Digested after 15 hours,[1]; H5P0,<20%
same,stability in the perfusion experiment,rat jejunum,most of the 33-mer gliadin peptide remained intact
same,half-life of digestion,[2],> 20 h
same,stability toward gastric and pancreatic proteases,[3],remained intact despite prolonged exposure to proteases

# — patent US20080299108A1, “Peptides for Diagnostic and Therapeutic Methods for Celiac Sprue” (priority 2005, published 2008)
